System: pooled human liver microsomes (HLM)
Experiment: Formation kinetics of SRL metabolites by pooled human liver microsomes
Type: in vitro ADME
Conditions: for Km: apparent Km of formation of the metabolite from sirolimus, Michaelis–Menten fit, n = 4; for CLint: apparent intrinsic clearance of formation of the metabolite, CLint = Vmax/Km
Protocol: Apparent enzyme kinetic parameters for the major SRL metabolites were assessed. […] Before the addition of the SRL, the NADPH-generating system was preincubated at 37 °C (type C24 incubator shaker, New Brunswick Scientific, Edison, NJ, USA) for 5 min. […] The final volume of the reaction solution was 500 μL, and the reaction was quenched by the addition of a 1:1 volume of ice-cold acetonitrile. Following protein precipitation, samples were briefly vortexed and subsequently centrifuged at 4 °C and 13,000× g for 10 min. The supernatant was transferred to a 2-mL HPLC glass vial and analyzed using high-performance liquid chromatography/tandem mass spectrometry (LC-MS/MS). Representative control incubations without HLMs, without drug, or without the NADPH-generating system (all in quadruplicate) were carried out under the same conditions with every SRL HLM metabolism batch.
For data analysis, we utilized Sciex Analyst Software (version TF1.7.1) to process and interpret mass spectrometry data. […] Kinetics data was fitted using the GraphPad Prism Enzyme Kinetics Module (Version 10.0.2, for Windows, GraphPad Software, Boston, MA, USA).
The formation rates of hydroxy SRL and desmethyl SRL were analyzed and fitted using Michaelis–Menten kinetics. This approach enables the determination of kinetic parameters such as Vmax (maximum reaction velocity) and Km (substrate concentration at half-maximal velocity), which provide insight into the enzymatic activity and substrate affinity for these metabolites. […] To compare the formation of the various metabolites and to predict the human hepatic clearance, the apparent intrinsic clearances of the formation of the metabolites (CLint = Vmax/Km) were calculated.

| Km [µM] | CLint [µL/mg protein/min] | Substance |
| --- | --- | --- |
| 9.58 | 0.65 | 11-Hydroxy sirolimus [11-Hydroxy SRL] |
| – | 0.06 | 27-O-Desmethyl sirolimus [27-O-desmethyl SRL] |
| 20.8 | 0.11 | 23/24-Hydroxy sirolimus [23/24-Hydroxy SRL] |

Source: PMC12299981, “Human Metabolism of Sirolimus Revisited” (Metabolites, 2025)
